Experimental findings from patent publication US20250019427A1 are described below.

The target of assay [1] is T1, Human GDF15 Fc (human) (UniProt Q99988).
T1 sequence (chain, biotinylated (EZ-Link Sulfo-NHS-Biotinylation Kit) where printed as biotinylated): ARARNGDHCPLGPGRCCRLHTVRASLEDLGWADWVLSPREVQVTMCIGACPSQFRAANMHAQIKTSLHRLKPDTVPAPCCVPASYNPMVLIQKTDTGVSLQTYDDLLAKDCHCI
As to the kind of experiment: Octet BLI, Fab monovalent.

Assay [2] has as its target T1, Human GDF15 Fc (human). Nature of the assay: SPR Biacore, Fab monovalent.

B1: Clone H Fab (Fab, V domains shown)
VH: QVQLVQSGAEVKKPGSSVKVSCKASGGTFSSYYISWVRQAPGQGLEWMGGIAPISGTASYAQKFQGRVTITADESTSTAYMELSSLRSEDTAVYYCARGLAYDGYFDLWGRGTLVTVSS
VL: DIVMTQSPLSLPVTPGEPASISCRSSQSLLYSNGYNYLDWYLQKPGQSPQLLIYLGSNRASGVPDRFSGSGSGTDFTLKISRVEAEDVGVYYCMQAIGVPLTFGGGTKVEIK
Molecule B1 had a Kd with Human GDF15 Fc (human) [1] of 1.24 nM. In the assay with Human GDF15 Fc (human) [2], this molecule showed a Kd of 0.117 nM, a koff of 0.000735 s⁻¹ and a kon of 6.29e+06 M⁻¹ s⁻¹.
